# Membrane permeability of cyclic peptides

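The data file gives no further conditions (lipid, pH, time, direction or concentration), and values from different papers need not be comparable. The list need not hold all peptides of the study. Entries at the database's floor value (log10 P of -10) are not listed.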

PAMPA is the parallel artificial membrane permeability assay, which has no cells and reads passive diffusion. Permeability is given as log10 of P in cm/s; higher (less negative) is more permeable.

SMILES	PAMPA (log10 cm/s)
CC(C)C[C@H]1NC(=O)[C@H](C)N(C)C(=O)[C@H]2CCCN2C(=O)[C@H](Cc2ccccc2)NC(=O)CN(Cc2ccccc2)C(=O)[C@@H]2CCCN2C(=O)[C@@H](CC(C)C)NC1=O	-6.18
CC(C)C[C@@H]1NC(=O)[C@@H](CC(C)C)NC(=O)[C@@H](C)N(C)C(=O)[C@H](Cc2ccccc2)NC(=O)[C@H](CC(C)C)N(C)C(=O)[C@H]2CCCN2C1=O	-4.96
CC(C)C[C@@H]1NC(=O)[C@H](C)N(C)C(=O)[C@H]2CCCN2C(=O)[C@H](Cc2ccccc2)NC(=O)[C@H](CC(C)C)N(C)C(=O)[C@@H]2CCCN2C(=O)[C@@H](CC(C)C)NC1=O	-5.50
CC(C)C[C@@H]1NC(=O)C[C@H](Cc2ccccc2)NC(=O)[C@H]2CCCN2C(=O)[C@H](Cc2ccccc2)NC(=O)CN(Cc2ccccc2)C(=O)[C@@H]2CCCN2C(=O)[C@H](CC(C)C)NC1=O	-6.27
CC(C)C[C@H]1NC(=O)C[C@H](Cc2ccccc2)NC(=O)[C@H]2CCCN2C(=O)[C@H](Cc2ccccc2)NC(=O)[C@@H](CC(C)C)NC(=O)[C@@H]2CCCN2C(=O)C[C@H](Cc2ccccc2)NC1=O	-5.83
CC(C)C[C@@H]1NC(=O)[C@H]2CCCN2C(=O)[C@@H](CC(C)C)N(C)C(=O)[C@@H](CC(C)C)N(C)C(=O)[C@H](C)NC(=O)[C@H]2CCCN2C(=O)[C@H](Cc2ccccc2)NC1=O	-5.61
CC(C)C[C@H]1NC(=O)CN(Cc2ccccc2)C(=O)[C@H](C)N(C)C(=O)[C@@H]2CCCN2C(=O)[C@H](Cc2ccccc2)NC(=O)[C@H](CC(C)C)N(C)C(=O)[C@@H]2CCCN2C1=O	-5.17
CC(C)C[C@@H]1C(=O)N[C@@H](Cc2ccccc2)C(=O)N2CCC[C@H]2C(=O)N(C)[C@@H](C)C(=O)N(C)[C@@H](CC(C)C)C(=O)N[C@H](CC(C)C)C(=O)N2CCC[C@H]2C(=O)N1C	-6.00
CC(C)C[C@@H]1C(=O)N[C@@H](Cc2ccccc2)CC(=O)N2CCC[C@H]2C(=O)N(C)[C@H](CC(C)C)C(=O)N[C@@H](Cc2ccccc2)C(=O)N(C)[C@@H](C)C(=O)N1C	-5.38
CC(C)C[C@@H]1C(=O)N[C@@H](Cc2ccccc2)C(=O)N(C)[C@@H](C)C(=O)N[C@H](CC(C)C)C(=O)N(Cc2ccccc2)CC(=O)N2CCC[C@@H]2C(=O)N1C	-5.35
CC(C)C[C@H]1NC(=O)[C@@H]2CCCN2C(=O)CN(Cc2ccccc2)C(=O)[C@@H](CC(C)C)NC(=O)[C@H](C)N(C)C(=O)[C@H]2CCCN2C(=O)[C@H](Cc2ccccc2)NC1=O	-5.97
CC(C)C[C@@H]1NC(=O)C[C@H](Cc2ccccc2)NC(=O)[C@H](Cc2ccccc2)NC(=O)[C@H](CC(C)C)N(C)C(=O)[C@H]2CCCN2C(=O)C[C@H](Cc2ccccc2)NC1=O	-5.37
CC(C)C[C@@H]1C(=O)N(C)[C@@H](CC(C)C)C(=O)N2CCC[C@@H]2C(=O)N[C@H](CC(C)C)C(=O)N[C@@H](Cc2ccccc2)C(=O)N[C@H](C)C(=O)N1C	-5.07
CC(C)C[C@H]1NC(=O)[C@@H](C)N(C)C(=O)[C@@H]2CCCN2C(=O)[C@H](Cc2ccccc2)NC(=O)[C@H](CC(C)C)N(C)C(=O)[C@H]2CCCN2C(=O)CN(Cc2ccccc2)C1=O	-6.04
CC(C)C[C@@H]1C(=O)N[C@@H](Cc2ccccc2)C(=O)N2CCC[C@H]2C(=O)N(C)[C@H](C)C(=O)N(Cc2ccccc2)CC(=O)N[C@@H](Cc2ccccc2)CC(=O)N2CCC[C@H]2C(=O)N1C	-6.04
CC(C)C[C@@H]1C(=O)N[C@@H](Cc2ccccc2)C(=O)N[C@@H](Cc2ccccc2)CC(=O)N[C@H](CC(C)C)C(=O)N(C)[C@@H](CC(C)C)C(=O)N2CCC[C@@H]2C(=O)N1C	-5.35
CC(C)C[C@@H]1NC(=O)[C@@H](C)N(C)C(=O)[C@@H]2CCCN2C(=O)[C@H](Cc2ccccc2)NC(=O)[C@@H](CC(C)C)N(C)C(=O)[C@H]2CCCN2C(=O)[C@@H](CC(C)C)NC1=O	-5.35
CC(C)C[C@@H]1NC(=O)[C@@H]2CCCN2C(=O)[C@@H](CC(C)C)N(C)C(=O)[C@@H](CC(C)C)N(C)C(=O)[C@H](C)NC(=O)[C@H](Cc2ccccc2)NC1=O	-5.41
CC(C)C[C@@H]1NC(=O)[C@@H]2CCCN2C(=O)[C@H](CC(C)C)N(C)C(=O)[C@@H](CC(C)C)N(C)C(=O)[C@H](C)N(C)C(=O)[C@H]2CCCN2C(=O)[C@H](Cc2ccccc2)NC1=O	-5.39
CC(C)C[C@@H]1NC(=O)[C@@H](CC(C)C)NC(=O)[C@H](C)N(C)C(=O)[C@H]2CCCN2C(=O)[C@H](Cc2ccccc2)NC(=O)[C@H](CC(C)C)N(C)C(=O)[C@H]2CCCN2C1=O	-5.00
CCCN1CC(=O)N[C@H](CC(C)C)C(=O)N(C)[C@@H](CC(C)C)C(=O)N2CCC[C@H]2C(=O)N[C@H](CC(C)C)C(=O)N[C@@H](Cc2ccccc2)C(=O)N2CCC[C@@H]2C1=O	-5.67
CCCN1CC(=O)N(C)[C@H](CC(C)C)C(=O)N[C@H](CC(C)C)C(=O)N2CCC[C@H]2C(=O)N[C@H](CC(C)C)C(=O)N[C@@H](Cc2ccccc2)C(=O)N2CCC[C@H]2C1=O	-5.84
CC(C)C[C@@H]1NC(=O)[C@@H]2CCCN2C(=O)[C@@H](CC(C)C)NC(=O)[C@@H](CC(C)C)N(C)C(=O)[C@H](C)NC(=O)[C@H](Cc2ccccc2)NC1=O	-5.62

4 of these entries, quoted again:

{"smiles": "CC(C)C[C@@H]1NC(=O)[C@H](C)N(C)C(=O)[C@H]2CCCN2C(=O)[C@H](Cc2ccccc2)NC(=O)[C@H](CC(C)C)N(C)C(=O)[C@@H]2CCCN2C(=O)[C@@H](CC(C)C)NC1=O", "PAMPA (log10 cm/s)": "-5.50"}
{"smiles": "CC(C)C[C@@H]1NC(=O)[C@@H](C)N(C)C(=O)[C@@H]2CCCN2C(=O)[C@H](Cc2ccccc2)NC(=O)[C@@H](CC(C)C)N(C)C(=O)[C@H]2CCCN2C(=O)[C@@H](CC(C)C)NC1=O", "PAMPA (log10 cm/s)": "-5.35"}
{"smiles": "CC(C)C[C@@H]1C(=O)N[C@@H](Cc2ccccc2)CC(=O)N2CCC[C@H]2C(=O)N(C)[C@H](CC(C)C)C(=O)N[C@@H](Cc2ccccc2)C(=O)N(C)[C@@H](C)C(=O)N1C", "PAMPA (log10 cm/s)": "-5.38"}
{"smiles": "CC(C)C[C@H]1NC(=O)C[C@H](Cc2ccccc2)NC(=O)[C@H]2CCCN2C(=O)[C@H](Cc2ccccc2)NC(=O)[C@@H](CC(C)C)NC(=O)[C@@H]2CCCN2C(=O)C[C@H](Cc2ccccc2)NC1=O", "PAMPA (log10 cm/s)": "-5.83"}

Source: CycPeptMPDB (Li et al. 2023), which took these values from Townsend et al. 2020, doi:10.26434/chemrxiv.13335941.v1.